The data set can be described thus: Intrinsic dissolution profile as a function of pH. In kind it is physicochemical. The conditions noted are these: 0.1N HCl (pH 1), pH 4.5 acetate buffer, pH 6.8 phosphate buffer, water; 37° C.; result in words. How it is done:
The opioid salts of the present invention were tested to determine their dissolution profile as a function of pH, and as a function of ethanol concentration in acidic media (dose dumping). To perform these experiments the buffered dissolution media and acidic ethanol solutions were prepared as identified herein, “Preparation of Solutions”. The test procedure was derived from the procedures cited in the United States Pharmacopeia and National Formulary (USP), numbers <1087> and <711>. The dose dumping procedure was adopted from the United States Food and Drug Administration's guidance regarding the dose dumping of oxymorphone. The sampling interval and regimen was defined and each sample analyzed by HPLC. Results from the HPLC analyses were plotted as a function of time and dissolution condition (FIG. 37 through FIG. 97 inclusive, and FIGS. 102-105, 109, 110, 114 and 115). This procedure was used to obtain the pH and dose dumping dissolution profiles disclosed herein. […] All activities within the procedure were conducted and executed for each of the compounds reported herein. Unless otherwise stated HPLC measurements were done and reported at ambient temperature and dissolution testing was done nominally at 37° C. […]

On to Morphine Xinafoate, for which the pH dissolution profile entry is “extended release at pH 1, and independent release as the pH increases”.

Consider Hydromorphone Xinafoate, for which the pH dissolution profile result is reported as “pH independent release profile”.

The values above are taken from patent publication US8329720B1, “Opioid salts and formulations exhibiting abuse deterrent and anti-dose dumping properties” (Pisgah Laboratories, Inc., priority 2007, dated 2012).
